Among the data in paper PMC9768450, “Succinyl-CoA:acetate CoA-transferase functioning in the oxidative tricarboxylic acid cycle in Desulfurella acetivorans” (Frontiers in Microbiology, 2022) are Km, Vmax and kcat/Km values, retold here.

The subject of this series is CC(=O)O. Kind of series: purified protein. Particulars: co-substrate succinyl-CoA 2 mM, 100 mM Tris-HCl pH 7.8, 5 mM MgCl2, 5 mM DTT, 55 °C.

The term Km denotes the concentration of substrate that gives half-maximal velocity. One may read the Vmax as the top rate of the reaction or transport when substrate is in excess. For orientation: kcat/Km means the turnover number divided by the Michaelis constant. Take “succinyl-CoA:acetate CoA-transferase encoded by the AHF96498 gene (AHF96498 gene product) (Desulfurella acetivorans A63)”: the Km stood at 400 ± 70 µM, the Vmax amounted to 9 µmol/min/mg and the kcat/Km was 23000 M⁻¹ s⁻¹.
